This note sets out measurements from PubChem BioAssay AID743247 (Broad Institute, 2014).

Only a part is listed here, and it is no random draw. Activity calls are given as the source filed them.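 How the source made its calls: active means mean inhibition across replicates of 30% or more, regardless of how many single replicates reach that level; inconclusive means mean under 30% yet at least half of replicates reach 30%; inactive means the rest.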

A short description of this assay: blockers of fibronectin fibrillogenesis by fibroblasts – AH1F cells, Alexa488-fibronectin fluorescence, plate reader, primary screen (AID 743247).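 Further: positive control wells lacked labelled fibronectin entirely.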 As to conditions: Alexa488-fibronectin deposition fluorescence, overnight, at 12.6 µM, hits give high values. The method in brief: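 Material: AH1F fibroblast monolayer depositing Alexa488-labelled fibronectin into matrix / Amount: 10000 AH1F cells per well / Signal: fluorescence 485/525 nm / Medium: DMEM, 2% serum / Compound: single dose, pinned / Incubation: 1 h cell adhesion before compound, then overnight fibronectin incubation / Reagent: Alexa488-FN, 24 nM final / Read-out: inhibition of fibronectin deposition signal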
In the case of `CN(C(=O)Cc1ccc(Cl)c(Cl)c1)[C@H]1CC[C@@]2(CCCO2)C[C@@H]1N1CCCC1`, the inhibition was inactive: -5.13%.

As for `N#CCCN(C(=O)COC(=O)C(O)(c1ccccc1)c1ccccc1)c1ccc(F)cc1`, the inhibition was inactive: 0.233%.

For the molecule `O=P(Nc1nccs1)(Oc1ccccc1)Oc1ccccc1`, the inhibition is inactive: -1.85%.

`O=C(O)COc1ccc([As](=O)(O)O)cc1[N+](=O)[O-]`: the inhibition is inactive: 0.069%.

With `Nc1ccccc1[As](=O)(O)c1ccccc1`, the inhibition is inactive: -0.53%.

On to `COC(=O)C1(C)COP(=O)(N2CCCCCC2)OC1` (configuration not stated), for which the inhibition is inactive: -6.51%.

As to `CC(C)c1ccc(OP(=O)(Nc2ccccn2)Oc2ccccc2F)cc1` (configuration not stated), the inhibition was inactive: 4.97%.

On to `ClCCSc1nnc(-c2cccnc2)o1`, for which the inhibition was inactive: 4.95%.

Regarding `CC(C)NC(=O)NP(=O)(Oc1ccccc1)Oc1ccccc1`, the inhibition was inactive: -4.27%.

With `O=C(OC1CN2CCC1CC2)c1cccc2[nH]cnc12` (configuration not stated), the inhibition was inactive: 8.1%.

Consider `C[As](=O)(O)c1cccc(C(=O)O)c1`, for which the inhibition was inactive: 5.08%.

Regarding `O=[As](O)(c1ccc(O)cc1)c1ccccc1O`, the inhibition was inactive: -0.965%.

For `O=[N+]([O-])c1ccc(-c2cc([N+](=O)[O-])c(O)c([N+](=O)[O-])c2)cc1`, the inhibition was inactive: -3.45%.

On to `COc1cc(C(=O)NCC2(N3CCOCC3)CCCCC2)ccc1OCC(C)C`, for which the inhibition is inactive: -7.35%.

On to `Cc1ccc2nc3c(c(C)c2c1)CC(C(Cl)Cl)S3` (configuration not stated), for which the inhibition was inactive: 19.8%.

On to `Cc1ccc(OP(=O)(Nc2ccc([N+](=O)[O-])cn2)Oc2ccc(C)cc2)cc1`, for which the inhibition was inactive: -2.8%.

For `[N-]=[N+]=NC1CCCCC1NC(=O)c1cc([N+](=O)[O-])cc([N+](=O)[O-])c1` (configuration not stated), the inhibition was inactive: 0.335%.

Take `COc1ccc(N/C(=N/P(=O)(N2CCOCC2)N2CCOCC2)N2CCOCC2)cc1`: the inhibition is inactive: -2.76%.

On to `O=[N+]([O-])c1cc(Oc2ccc([N+](=O)[O-])cc2C(F)(F)F)cc([N+](=O)[O-])c1`, for which the inhibition is inactive: 9.64%.

For `Cc1cc(=O)[nH]c(N[N+](=O)[O-])n1`, the inhibition was inactive: 5.53%.

On to `Cc1c2c(nc3ccccc13)SC(C(Cl)Cl)C2` (configuration not stated), for which the inhibition was inactive: 13.7%.

Turning to `COc1ccc2nc(NP(=O)(c3ccccc3)c3ccccc3)sc2c1`, the inhibition was inactive: 5.26%.

With `COc1cc(I)ccc1[As](=O)(O)O`, the inhibition is inactive: 0.254%.

Take `O=P1(N(CCCl)CCCl)Nc2ccccc2N1`: the inhibition is inactive: 1%.

As for `O=P1(N(CCCl)CCCl)OCCCN1CCCl` (configuration not stated), the inhibition is inactive: 0.579%.

With `CCOC(=O)c1ccc(NC(=O)C(C)(CCl)SC)cc1` (configuration not stated), the inhibition is inactive: -13.8%.

For `O=C(OC1CN2CCC1CC2)c1cccc([N+](=O)[O-])c1` (configuration not stated), the inhibition is inactive: -0.853%.

On to `CCC(C)N(CC(C)C)C(=S)SC(NC(C)=O)C(Cl)(Cl)Cl` (configuration not stated), for which the inhibition was inactive: -4.96%.

In the case of `COC(=O)C1(C)COP(=O)(N2CCCC2)OC1` (configuration not stated), the inhibition was inactive: 2.06%.

Regarding `O=C(COc1ccccc1)OC1CN2CCC1CC2` (configuration not stated), the inhibition was inactive: 0.565%.

With `O=C(Nc1ccncc1[N+](=O)[O-])c1ccc([N+](=O)[O-])cc1[N+](=O)[O-]`, the inhibition was inactive: 6.2%.

As to `O=C(O)C(=O)c1ccc(N(CCCl)CCCl)cc1`, the inhibition is inactive: -2.84%.

Turning to `CCOC(=O)Nc1cccc([As](=O)(O)O)c1`, the inhibition is inactive: 5.61%.

`O=[N+]([O-])c1ccc(Nc2ccc(Oc3ccc([N+](=O)[O-])cc3[N+](=O)[O-])cc2)c([N+](=O)[O-])c1`: the inhibition is inactive: 2.22%.

Take `Cc1cc(SC(NC=O)C(Cl)(Cl)Cl)ncn1` (configuration not stated): the inhibition was inactive: 5.32%.

`O=P(Nc1ccccn1)(c1cccc2ccccc12)c1cccc2ccccc12`: the inhibition was inactive: 7.41%.

Take `CC1CCNP(=O)(N(CCCl)CCCl)O1` (configuration not stated): the inhibition was inactive: -0.237%.

As for `O=C(O)C(O)c1ccc(N(CCCl)CCCl)cc1` (configuration not stated), the inhibition was inactive: 1.58%.

As for `CCOC(=O)Nc1ccc([As](=O)(O)O)c(O)c1`, the inhibition is inactive: 9.39%.

Regarding `CCCCOc1ccc(C(=O)NCC2(N3CCCCC3)CCCCC2)cc1OC`, the inhibition is inactive: 3.02%.

Consider `Cc1cc(SC(NC(=O)c2ccccc2)C(Cl)(Cl)Cl)nc(C(C)C)n1` (configuration not stated), for which the inhibition is inactive: -2.86%.

For `COP(=O)(OC)N1CC1c1ccccc1` (configuration not stated), the inhibition is inactive: -6.26%.

In general, inhibition refers to the change of the read-out against control, counted positive when it falls.
